# Measured values published in publication PMC2846987 (Journal of neuroscience methods, 2010).
# Protein sequences, listed by entry. Tags and fused reporters are not part of them. Lines headed by an entry give the natural chain unless they say otherwise; changes in a name come on top.
# UniProt P61169, whole entry: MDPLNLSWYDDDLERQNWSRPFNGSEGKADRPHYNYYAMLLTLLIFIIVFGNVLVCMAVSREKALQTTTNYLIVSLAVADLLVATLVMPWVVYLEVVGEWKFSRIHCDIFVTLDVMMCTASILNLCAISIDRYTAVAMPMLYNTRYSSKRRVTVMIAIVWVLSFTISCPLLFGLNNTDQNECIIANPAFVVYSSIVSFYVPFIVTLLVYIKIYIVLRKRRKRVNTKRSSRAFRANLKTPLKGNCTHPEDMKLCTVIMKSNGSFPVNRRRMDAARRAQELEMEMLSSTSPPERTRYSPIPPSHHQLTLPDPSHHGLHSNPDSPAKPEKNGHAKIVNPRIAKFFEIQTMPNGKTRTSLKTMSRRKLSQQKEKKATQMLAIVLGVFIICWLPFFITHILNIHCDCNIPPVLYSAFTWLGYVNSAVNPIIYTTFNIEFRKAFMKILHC
# Target: DA D2 receptors (rat D2L, HEK293-rD2) (Rattus norvegicus, UniProt P61169)
# Conditions: hot saturation, mean ± SEM, 3 experiments
compound,measurement,value
O=C(CCCN1CCC2(CC1)C(=O)NCN2c1ccccc1)c1ccc(F)cc1,Bmax (maximal binding),2.41 ± 0.26 pmol/mg of protein
